# Measurements as given in paper PMC4786016 (Environmental science & technology, 2015).
# By UniProt entry, the sequences of proteins in these tests, tags left out. Where a name states a change or a piece, a line headed by the entry shows the natural chain unless it says otherwise.
# UniProt P37231: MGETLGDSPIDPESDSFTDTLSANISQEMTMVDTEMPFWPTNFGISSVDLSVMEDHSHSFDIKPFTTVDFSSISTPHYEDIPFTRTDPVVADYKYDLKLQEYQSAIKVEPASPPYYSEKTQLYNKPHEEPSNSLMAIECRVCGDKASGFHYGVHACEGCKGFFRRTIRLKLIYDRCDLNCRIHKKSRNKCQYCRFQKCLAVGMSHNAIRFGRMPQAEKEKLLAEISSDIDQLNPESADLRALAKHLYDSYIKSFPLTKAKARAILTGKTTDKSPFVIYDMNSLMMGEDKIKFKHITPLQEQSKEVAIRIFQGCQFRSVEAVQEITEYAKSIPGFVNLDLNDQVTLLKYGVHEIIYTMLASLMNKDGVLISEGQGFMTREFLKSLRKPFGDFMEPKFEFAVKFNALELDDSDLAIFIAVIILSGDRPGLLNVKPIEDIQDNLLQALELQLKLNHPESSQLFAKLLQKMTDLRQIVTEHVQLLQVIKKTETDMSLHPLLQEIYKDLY
# Molecular target: human PPARγ1 (Homo sapiens, UniProt P37231)
substance,measurement,value
tri(2-butoxyethanol) phosphate [TBOEP],NOAEL,3.6 µM
